The structures appear in SMILES notation.

Sequences of proteins named here, by UniProt entry; tags and fusion partners are left off. Residues count along the entry.
UniProt P05106, 27-788 limits assumed: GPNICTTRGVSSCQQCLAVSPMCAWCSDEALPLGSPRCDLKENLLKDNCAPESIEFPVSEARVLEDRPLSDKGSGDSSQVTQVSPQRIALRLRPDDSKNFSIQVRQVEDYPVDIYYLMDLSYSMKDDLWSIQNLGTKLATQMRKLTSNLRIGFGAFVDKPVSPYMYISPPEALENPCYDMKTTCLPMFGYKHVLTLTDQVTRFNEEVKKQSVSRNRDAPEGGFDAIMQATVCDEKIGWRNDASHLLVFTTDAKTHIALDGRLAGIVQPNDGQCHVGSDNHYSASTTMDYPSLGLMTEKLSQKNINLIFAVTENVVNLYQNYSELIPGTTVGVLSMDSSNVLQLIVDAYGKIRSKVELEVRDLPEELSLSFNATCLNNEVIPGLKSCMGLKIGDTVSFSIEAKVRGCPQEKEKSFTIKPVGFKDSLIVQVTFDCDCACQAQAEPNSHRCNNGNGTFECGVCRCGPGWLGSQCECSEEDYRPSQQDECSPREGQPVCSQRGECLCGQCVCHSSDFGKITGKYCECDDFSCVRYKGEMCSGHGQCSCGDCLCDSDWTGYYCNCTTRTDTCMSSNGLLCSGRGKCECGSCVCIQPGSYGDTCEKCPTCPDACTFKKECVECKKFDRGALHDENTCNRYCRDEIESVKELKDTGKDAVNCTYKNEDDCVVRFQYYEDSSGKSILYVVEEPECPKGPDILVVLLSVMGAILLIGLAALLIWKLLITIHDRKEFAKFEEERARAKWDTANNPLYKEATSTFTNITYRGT
UniProt P06756, 891-1048 limits assumed: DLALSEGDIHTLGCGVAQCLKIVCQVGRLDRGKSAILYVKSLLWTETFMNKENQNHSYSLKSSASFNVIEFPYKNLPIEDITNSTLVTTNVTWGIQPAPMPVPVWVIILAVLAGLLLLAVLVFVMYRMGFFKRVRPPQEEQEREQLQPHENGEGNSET
UniProt P06756, 31-889 limits assumed: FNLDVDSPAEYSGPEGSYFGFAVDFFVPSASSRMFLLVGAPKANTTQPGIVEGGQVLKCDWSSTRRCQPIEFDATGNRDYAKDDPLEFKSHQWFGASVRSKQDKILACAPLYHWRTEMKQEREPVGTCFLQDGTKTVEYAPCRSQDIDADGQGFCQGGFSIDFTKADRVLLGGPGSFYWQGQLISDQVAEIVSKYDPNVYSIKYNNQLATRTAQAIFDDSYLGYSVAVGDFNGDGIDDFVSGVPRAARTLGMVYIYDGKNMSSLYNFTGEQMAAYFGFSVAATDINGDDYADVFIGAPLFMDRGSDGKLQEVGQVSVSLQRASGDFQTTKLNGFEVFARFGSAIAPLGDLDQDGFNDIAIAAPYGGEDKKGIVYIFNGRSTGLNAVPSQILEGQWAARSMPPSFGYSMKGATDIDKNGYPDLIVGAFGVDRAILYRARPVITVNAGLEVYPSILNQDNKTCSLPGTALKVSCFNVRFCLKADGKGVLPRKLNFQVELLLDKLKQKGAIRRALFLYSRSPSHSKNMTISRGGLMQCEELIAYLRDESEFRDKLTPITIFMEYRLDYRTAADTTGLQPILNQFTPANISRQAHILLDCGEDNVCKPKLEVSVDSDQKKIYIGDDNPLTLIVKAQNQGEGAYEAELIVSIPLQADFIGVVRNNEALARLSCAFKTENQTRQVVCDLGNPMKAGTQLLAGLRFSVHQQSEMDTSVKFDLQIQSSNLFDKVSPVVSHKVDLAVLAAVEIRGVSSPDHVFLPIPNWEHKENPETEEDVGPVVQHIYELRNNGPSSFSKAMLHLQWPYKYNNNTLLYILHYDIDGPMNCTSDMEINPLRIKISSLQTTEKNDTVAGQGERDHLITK

One experiment concerns the target T1, Integrin alpha-V/beta-3 (Homo sapiens, UniProt P05106+P06756). Put plainly: Inhibitory activity against alphaV-beta3 integrin. The class given is protein-complex assay.
Conditions: not given
A word on the IC50: it is the concentration needed to halve the response being measured. Read a high IC50 as weaker potency in that assay. Regarding `O=C(O)CC(NC(=O)CNC(=O)c1ccc(NC(=O)NCc2ccccc2)o1)c1ccc(-c2ccccc2)cc1` (stereo unspecified), the IC50 is 1.5 nM.
Still for that read-out and setting: the same measure for `O=C(O)CC(NC(=O)CNC(=O)c1cnc(NC(=O)NCc2ccccc2)s1)c1cccnc1` (stereo unspecified): 10000 nM; for `CN(CC(=O)NC[C@@H](CC(=O)O)NC(=O)OCc1ccccc1)C(=O)c1ccc(NC(=O)NCc2ccccc2)o1`: 88.2 nM; for `O=C(O)CC(NC(=O)CNC(=O)c1cnc(NC(=O)NCc2ccccc2)o1)c1cc(Cl)cc(Cl)c1` (stereo unspecified): 3.8 nM.
On the same count and under the same terms, in the case of `O=C(NCc1ccccc1)Nc1ccc(C(=O)NCCCC[C@@H](NC(=O)OCc2ccccc2)C(=O)O)o1` it was 5000 nM.
The same measure, in the same setting: in the case of `O=C(O)CC(NC(=O)CNC(=O)c1ccc(NC(=O)NCc2ccccc2)o1)c1cc(Cl)cc(Cl)c1` (stereo unspecified) it was 0.2 nM; in that of `Cc1ccc(C(CC(=O)O)NC(=O)CCNC(=O)c2ccc(NC(=O)NCc3ccccc3)o2)cc1` (stereo unspecified), 1000 nM; in that of `O=C(O)CC(NC(=O)CNC(=O)c1ccc(NC(=O)NCc2ccccc2)o1)c1ccc2ccccc2c1` (stereo unspecified), 0.3 nM.
Compound `O=C(O)CC(NC(=O)CNC(=O)c1csc(NC(=O)NCc2ccccc2)n1)c1cccnc1` (stereo unspecified) had an IC50 of 0.3 nM.
As for `O=C(O)CC(NC(=O)CNC(=O)c1ccc(NC(=O)NCc2ccccc2)o1)C1CCCCC1` (stereo unspecified), the IC50 is 0.9 nM.
On the same count and under the same terms, the same measure for `O=C(O)CC(NC(=O)CNC(=O)c1csc(NC(=O)NCc2ccccc2)c1)c1cccnc1` (stereo unspecified): 2 nM.
On the same count and under the same terms, in the case of `Cc1ccc(C(CC(=O)O)NC(=O)CNC(=O)c2ccc(NC(=O)NCc3ccccc3)o2)cc1` (stereo unspecified) it was 1.9 nM; in that of `O=C(O)CC(NC(=O)CNC(=O)c1cnc(NC(=O)NCc2ccccc2)o1)c1cccnc1` (stereo unspecified), 0.3 nM.
For the compound `Cn1cc(NC(=O)NCc2ccccc2)cc1C(=O)NCC(=O)NC(CC(=O)O)c1cccnc1` (stereo unspecified), the midpoint of inhibition, the IC50, lay at 16 nM.
Still for that read-out and setting: in the case of `O=C(O)CC(NC(=O)CCNC(=O)c1ccc(NC(=O)NCc2ccccc2)o1)C1CCCCC1` (stereo unspecified) it was 10000 nM.
On the same count and under the same terms, in the case of `O=C(O)C[C@H](CNC(=O)CNC(=O)c1ccc(NC(=O)NCc2ccccc2)o1)NC(=O)OCc1ccccc1` it was 43.5 nM; in that of `O=C(CCNC(=O)c1ccc(NC(=O)NCc2ccccc2)o1)NC[C@@H](NC(=O)OCc1ccccc1)C(=O)O`, 3.1 nM; in that of `O=C(O)C[C@@H](CNC(=O)CCNC(=O)c1ccc(NC(=O)NCc2ccccc2)o1)NC(=O)OCc1ccccc1`, 2330 nM.
Regarding `CN(CC(=O)NC[C@H](NC(=O)OCc1ccccc1)C(=O)O)C(=O)c1ccc(NC(=O)NCc2ccccc2)o1`, 8.9 nM corresponded to half-maximal inhibition (IC50).
The same measure, in the same setting: in the case of `O=C(O)CC(NC(=O)CCNC(=O)c1ccc(NC(=O)NCc2ccccc2)o1)c1cccnc1` (stereo unspecified) it was 144 nM.
The same measure, in the same setting: the same measure for `O=C(NCc1ccccc1)Nc1ccc(C(=O)NCCC[C@H](NC(=O)OCc2ccccc2)C(=O)O)o1`: 1000 nM; for `COc1ccc(C(CC(=O)O)NC(=O)CNC(=O)c2ccc(NC(=O)NCc3ccccc3)o2)cc1OC` (stereo unspecified): 0.5 nM; for `Cc1ccc(C(CC(=O)O)NC(=O)CN(C)C(=O)c2ccc(NC(=O)NCc3ccccc3)o2)cc1` (stereo unspecified): 100 nM.
Same read-out and setting: in the case of `O=C(O)CC(NC(=O)CNC(=O)c1ccc(NC(=O)NCc2ccccc2)o1)c1cccnc1` (stereo unspecified) it was 0.1 nM; in that of `CN(CC(=O)NC(CC(=O)O)C1CCCCC1)C(=O)c1ccc(NC(=O)NCc2ccccc2)o1` (stereo unspecified), 311 nM; in that of `O=C(O)CC(NC(=O)CNC(=O)c1ccc(NC(=O)NCc2ccccc2)s1)c1cccnc1` (stereo unspecified), 1000 nM.
Turning to `O=C(O)CC(NC(=O)CNC(=O)c1coc(NC(=O)NCc2ccccc2)n1)c1cccnc1` (stereo unspecified), half-maximal inhibition (IC50) was put at 14 nM.
The same measure, in the same setting: the same measure for `O=C(O)CC(NC(=O)CNC(=O)c1n[nH]c(NC(=O)NCc2ccccc2)n1)c1cccnc1` (stereo unspecified): 72 nM; for `CN(CC(=O)NC(CC(=O)O)c1cc(Cl)cc(Cl)c1)C(=O)c1ccc(NC(=O)NCc2ccccc2)o1` (stereo unspecified): 50.5 nM.

The target in a further experiment is T1, Integrin alpha-V/beta-3. To be noted: 10e-5 M.
The term inhibition denotes the change of the read-out against control, counted positive when it falls. Read a high inhibition as a strong effect. Consider `O=C(CNC(=O)c1ccc(NC(=O)NCc2ccccc2)o1)NC[C@H](NC(=O)OCc1ccccc1)C(=O)O`, for which the inhibition came out at 86%.

A further experiment addresses T1, Integrin alpha-V/beta-3. To be noted: 10e-5 M. This is another data set of the same source.
Compound `O=C(CNC(=O)c1cnc(NC(=O)NCc2ccccc2)o1)NC[C@H](NC(=O)OCc1ccccc1)C(=O)O` returned an inhibition of 92%.

Values taken from ChEMBL document CHEMBL1135113, “Synthesis of highly potent and selective hetaryl ureas as integrin alpha(V)beta3-receptor antagonists” (Bioorg Med Chem Lett, 2002).
